Assay results: PMC12102759 (Protein Science : A Publication of the Protein Society, 2025)

Test system: YES SH3
Assay type: binding, human

For TSSIQSRPLPSPPKFT L9T (TSSIQSRPTPSPPKFT), the “PSSM value of the single amino acid variant (DMS by phage display)” value (“PSSM value” for short) was 0.
“TSSIQSRPLPSPPKFT S11F (TSSIQSRPLPFPPKFT)” was tested, and the “PSSM value” value was 0.0222.
TSSIQSRPLPSPPKFT Q5P (TSSIPSRPLPSPPKFT) was tested, and the “PSSM value” value was 0.1012.
In the case of “TSSIQSRPLPSPPKFT P13A (TSSIQSRPLPSPAKFT)”, the “PSSM value” value is reported as 0.005715.
TSSIQSRPLPSPPKFT T1L (LSSIQSRPLPSPPKFT) was tested, and the “PSSM value” value was 0.007808.
With “TSSIQSRPLPSPPKFT S11K (TSSIQSRPLPKPPKFT)” the “PSSM value” value was 0.1065.
TSSIQSRPLPSPPKFT T1W (WSSIQSRPLPSPPKFT) was tested, and the “PSSM value” value was 0.04128.
“TSSIQSRPLPSPPKFT P10Y (TSSIQSRPLYSPPKFT)” was tested, and the “PSSM value” value was 0.
In the case of TSSIQSRPLPSPPKFT Q5G (TSSIGSRPLPSPPKFT), the “PSSM value” value is reported as 0.02833.
For TSSIQSRPLPSPPKFT T1I (ISSIQSRPLPSPPKFT), the “PSSM value” value was 0.006316.
In the case of TSSIQSRPLPSPPKFT Q5Y (TSSIYSRPLPSPPKFT), the “PSSM value” value is reported as 0.02417.
In the case of “TSSIQSRPLPSPPKFT P10Q (TSSIQSRPLQSPPKFT)”, the “PSSM value” value is reported as 0.05252.
With TSSIQSRPLPSPPKFT S6A (TSSIQARPLPSPPKFT) the “PSSM value” value was 0.009111.
With TSSIQSRPLPSPPKFT S6L (TSSIQLRPLPSPPKFT) the “PSSM value” value was 0.08273.
TSSIQSRPLPSPPKFT R7H (TSSIQSHPLPSPPKFT) was tested, and the “PSSM value” value was 0.1035.
TSSIQSRPLPSPPKFT S2W (TWSIQSRPLPSPPKFT) was tested, and the “PSSM value” value was 0.2905.
With “TSSIQSRPLPSPPKFT K14H (TSSIQSRPLPSPPHFT)” the “PSSM value” value was 0.1187.
In the case of TSSIQSRPLPSPPKFT P8I (TSSIQSRILPSPPKFT), the “PSSM value” value is reported as 0.1683.
In the case of “TSSIQSRPLPSPPKFT P13R (TSSIQSRPLPSPRKFT)”, the “PSSM value” value is reported as 0.002965.
In the case of TSSIQSRPLPSPPKFT S3F (TSFIQSRPLPSPPKFT), the “PSSM value” value is reported as 0.03592.
“TSSIQSRPLPSPPKFT P10I (TSSIQSRPLISPPKFT)” was tested, and the “PSSM value” value was 0.
For TSSIQSRPLPSPPKFT L9W (TSSIQSRPWPSPPKFT), the “PSSM value” value was 0.
In the case of TSSIQSRPLPSPPKFT T1V (VSSIQSRPLPSPPKFT), the “PSSM value” value is reported as 0.2962.
For “TSSIQSRPLPSPPKFT S11T (TSSIQSRPLPTPPKFT)”, the “PSSM value” value was 0.0519.
For TSSIQSRPLPSPPKFT P12P, the “PSSM value” value was 0.01892.
With TSSIQSRPLPSPPKFT R7M (TSSIQSMPLPSPPKFT) the “PSSM value” value was 0.2077.
In the case of TSSIQSRPLPSPPKFT R7W (TSSIQSWPLPSPPKFT), the “PSSM value” value is reported as 0.105.
With TSSIQSRPLPSPPKFT Q5T (TSSITSRPLPSPPKFT) the “PSSM value” value was 0.03107.
TSSIQSRPLPSPPKFT S3I (TSIIQSRPLPSPPKFT) was tested, and the “PSSM value” value was 0.4848.
For TSSIQSRPLPSPPKFT S2V (TVSIQSRPLPSPPKFT), the “PSSM value” value was 0.00272.
TSSIQSRPLPSPPKFT S2M (TMSIQSRPLPSPPKFT) was tested, and the “PSSM value” value was 0.01061.
In the case of “TSSIQSRPLPSPPKFT F15S (TSSIQSRPLPSPPKST)”, the “PSSM value” value is reported as 0.
With “TSSIQSRPLPSPPKFT K14M (TSSIQSRPLPSPPMFT)” the “PSSM value” value was 0.1324.
For TSSIQSRPLPSPPKFT L9P (TSSIQSRPPPSPPKFT), the “PSSM value” value was 0.
In the case of TSSIQSRPLPSPPKFT S6Y (TSSIQYRPLPSPPKFT), the “PSSM value” value is reported as 0.1483.
In the case of “TSSIQSRPLPSPPKFT F15L (TSSIQSRPLPSPPKLT)”, the “PSSM value” value is reported as 0.02724.
With TSSIQSRPLPSPPKFT S2Q (TQSIQSRPLPSPPKFT) the “PSSM value” value was 0.002949.
For “TSSIQSRPLPSPPKFT P12V (TSSIQSRPLPSVPKFT)”, the “PSSM value” value was 0.005074.
For “TSSIQSRPLPSPPKFT S11P (TSSIQSRPLPPPPKFT)”, the “PSSM value” value was 0.02315.
TSSIQSRPLPSPPKFT L9K (TSSIQSRPKPSPPKFT) was tested, and the “PSSM value” value was 0.01436.
For TSSIQSRPLPSPPKFT T1Q (QSSIQSRPLPSPPKFT), the “PSSM value” value was 0.03696.
For TSSIQSRPLPSPPKFT I4W (TSSWQSRPLPSPPKFT), the “PSSM value” value was 0.06569.
In the case of TSSIQSRPLPSPPKFT S11S, the “PSSM value” value is reported as 0.02544.
For TSSIQSRPLPSPPKFT S3Q (TSQIQSRPLPSPPKFT), the “PSSM value” value was 0.03591.
For TSSIQSRPLPSPPKFT S6H (TSSIQHRPLPSPPKFT), the “PSSM value” value was 0.01283.
